Data taken from patent publication US20200016207A1, “TRANSGENIC c-MPL PROVIDES LIGAND-DEPENDENT CO-STIMULATION AND CYTOKINE SIGNALS TO TCR-ENGINEERED T CELLS” (Baylor College of Medicine, priority 2017, published 2020).

Columns and labels:
Format in all cases: cell-based, human
[1] = tested on: TCR+ T cells; assay: Antigen-specific expansion with survivin peptide-pulsed aAPCs, TCR+ T cells; details: IL-2 50 U/mL; rhTPO up to 500 ng/ml
Procedure: aAPCs (described above) were pulsed with the LMLGEFLKL survivin peptide (Genemed Synthesis), irradiated at 100 cGy, and used to stimulate T cells at an E:T ratio of 4:1 with IL-2 (50 U/mL) or rhTPO (5 ng/mL, 50 ng/mL, or 500 ng/mL). At the end of the first stimulation (7 days), cells were collected, counted, phenotyped and re-stimulated with fresh peptide-pulsed aAPCs under the same conditions. Fold expansion was recorded at the end of the second stimulation.

[2] = tested on: U266 myeloma cells; assay: Co-culture of TCR+c-MPL+ T cells with U266 myeloma cells; details: rhTPO 50 ng/ml, IL2 25 U/ml, n=3
Procedure: (§1) Cells were stained ith antibodies and analyzed by flow cytometry. Cells were stained with FITC-, phycoerythrin- (PE-), peridinin chlorophyll protein-(PerCP-), or allophycocyanin-conjugated (APC-conjugated) antibodies (Abs) against CD3, CD4, CD8, CD110 (c-MPL), murine TCR constant region (mCβ, ebioscience), CD19, or CD138. Cell viability was assessed by 7-AAD staining. T cells and tumor cell populations from co-culture assays were quantified by adding CountBright Beads (Invitrogen) to the analysis. T cell memory marker expression on CD8+ T cells re-covered from co-cultures was analyzed by staining cells with FITC-, PE-, ECD-, PerCP-, APC-, APC-AF750, or V450-conjugated Abs against CD45RO, CD45RA, CD62L, CCR7, CD110, mCβ, CD19, and 7AAD. Intracellular staining for phosphoproteins pSTAT3 and pSTAT5 was performed with PE- and Pacific Blue-conjugated Abs and Phosflow reagents (BD). To assess cell proliferation, cells were labeled with Carboxyfluorescein succinimidyl ester (CFSE, ThermoFisher) and analyzed after 7 days of culture. […]
(§2) BV173 or U266B1 cells and T cells were co-cultured in up to eight replicate wells at various E:T ratios in CTL media with no cytokines, rhTPO (5 ng/mL or 50 ng/mL), or EP (0.1 μg/mL). […] Every 3-4 days of co-culture, cells were harvested from a replicate culture well and analyzed by FACS for tumor- and T cell counts, as well as T cell memory marker phenotype. […]

[3] = tested on: BV173 leukemia cells; assay: Co-culture of TCR+c-MPL+ T cells with BV173 leukemia cells; details: rhTPO 50 ng/ml, IL2 25 U/ml
Procedure: as §1, §2

[4] = tested on: BV173 leukemia cells; assay: Serial (sequential) co-culture with BV173 leukemia cells; details: E:T 1:5, versus no cytokines
Procedure: as §1, §2

**Q.** How did the “antigen-specific expansion of TCR+ T cells” value [1] turn out when “IL2: interleukin-2 cytokine used as control culture condition” was run?
**A.** expanded

**Q.** And the “residual U266 cells” value ([2]; day 5, E:T 1:1, TCR+c-MPL+ T cells, noCK 43.3±1.1×10^5)?
**A.** 3.13±0.45×10^5

**Q.** And the “T cell count in U266 co-culture” value ([2]; day 5, E:T 1:1, noCK 1.84±0.31×10^5)?
**A.** 25.2±7.2×10^5

**Q.** What about the “residual BV173 cells” value ([3]; day 5, E:T 1:3, TCR+c-MPL+ T cells, noCK 10.3±7.9×10^3) of the same substance?
**A.** 3.52±5.27×10^3

**Q.** And the “T cell count in BV173 co-culture” value ([3]; day 5, E:T 1:3, noCK 16.7±8.1×10^4)?
**A.** 56.2±25.2×10^4

**Q.** What about the “T cell expansion in serial co-culture” value [4] of the same substance?
**A.** significantly enhanced
